# Test results published in ChEMBL document CHEMBL1125866, “Aldophosphamide acetal diacetate and structural analogues: synthesis and cytotoxicity studies” (J Med Chem, 1991).
# Experiments:
# [1] = Half-life in […] Phosphate buffer at pH 7.4(37 degrees C); type: ADME
# Method in brief: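 Acetal at 100 μM in 0.05 M phosphate buffer, pH 7.4, shaken at 37 °C without enzyme. Aliquots taken at intervals (typically 2–50 h) and parent drug measured by reverse-phase C-18 HPLC with UV detection at 220 nm. Half-life from linear least-squares regression of pseudo-first-order decay.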
# [2] = organism: Sus scrofa; test: Half-life in […] at pH 7.4(37 degrees C) in the presence of pig Liver Carboxylate Esterase; type: ADME
# [3] = test system: L1210; test: Concentration required to reduce the viability of L1210 cells by 50% after 1-h incubation at 37 degrees C
compound,measurement,setting,value
CCOP(=O)(OCCC(OC(C)=O)OC(C)=O)N(CCCl)CCCl (stereo not given),T1/2,[1],29 h
same,T1/2,[2],42 s
O=P(O)(N(CCCl)CCCl)N(CCCl)CCCl,IC50,[3],97 µM
COP(=O)(OCCC(OC(C)=O)OC(C)=O)N(CCCl)CCCl (stereo not given),T1/2,[1],32 h
same,T1/2,[2],42 s
